Experimental findings from ChEMBL document CHEMBL2057167, “Rapid identification of ETP-46992, orally bioavailable PI3K inhibitor, selective versus mTOR” (Bioorg Med Chem Lett, 2012) are described below.

Sequences of proteins named here, by UniProt entry; tags and fusion partners are left off.
UniProt P42336, whole entry H1047R: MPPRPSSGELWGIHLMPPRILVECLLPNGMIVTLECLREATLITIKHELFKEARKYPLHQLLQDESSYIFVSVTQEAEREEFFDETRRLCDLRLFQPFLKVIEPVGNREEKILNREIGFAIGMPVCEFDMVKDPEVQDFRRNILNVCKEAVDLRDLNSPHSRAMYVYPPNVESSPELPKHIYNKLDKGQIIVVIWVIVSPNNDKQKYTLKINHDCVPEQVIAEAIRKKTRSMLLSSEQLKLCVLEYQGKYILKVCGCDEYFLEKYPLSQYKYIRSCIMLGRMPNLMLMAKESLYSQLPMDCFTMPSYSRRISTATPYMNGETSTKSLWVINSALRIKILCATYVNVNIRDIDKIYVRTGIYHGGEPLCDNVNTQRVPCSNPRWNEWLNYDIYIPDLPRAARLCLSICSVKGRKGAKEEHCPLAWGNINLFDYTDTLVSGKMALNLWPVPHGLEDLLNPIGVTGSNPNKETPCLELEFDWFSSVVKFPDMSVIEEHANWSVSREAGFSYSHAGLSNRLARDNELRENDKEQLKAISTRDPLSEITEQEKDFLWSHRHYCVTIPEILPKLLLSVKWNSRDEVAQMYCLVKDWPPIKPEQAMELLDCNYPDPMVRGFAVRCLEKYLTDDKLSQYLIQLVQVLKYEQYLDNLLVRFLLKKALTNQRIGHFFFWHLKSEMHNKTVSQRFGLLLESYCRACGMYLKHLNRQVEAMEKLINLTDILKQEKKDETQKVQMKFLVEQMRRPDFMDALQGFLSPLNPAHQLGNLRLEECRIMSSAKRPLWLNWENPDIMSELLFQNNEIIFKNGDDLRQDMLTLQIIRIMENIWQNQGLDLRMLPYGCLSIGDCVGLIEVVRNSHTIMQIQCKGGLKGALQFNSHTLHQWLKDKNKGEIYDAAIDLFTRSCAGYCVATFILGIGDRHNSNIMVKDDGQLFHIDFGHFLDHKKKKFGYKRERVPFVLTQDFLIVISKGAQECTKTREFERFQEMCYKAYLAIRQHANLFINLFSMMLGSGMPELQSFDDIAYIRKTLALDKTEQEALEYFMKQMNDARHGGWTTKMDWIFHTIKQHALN
UniProt P42336, whole entry E542K: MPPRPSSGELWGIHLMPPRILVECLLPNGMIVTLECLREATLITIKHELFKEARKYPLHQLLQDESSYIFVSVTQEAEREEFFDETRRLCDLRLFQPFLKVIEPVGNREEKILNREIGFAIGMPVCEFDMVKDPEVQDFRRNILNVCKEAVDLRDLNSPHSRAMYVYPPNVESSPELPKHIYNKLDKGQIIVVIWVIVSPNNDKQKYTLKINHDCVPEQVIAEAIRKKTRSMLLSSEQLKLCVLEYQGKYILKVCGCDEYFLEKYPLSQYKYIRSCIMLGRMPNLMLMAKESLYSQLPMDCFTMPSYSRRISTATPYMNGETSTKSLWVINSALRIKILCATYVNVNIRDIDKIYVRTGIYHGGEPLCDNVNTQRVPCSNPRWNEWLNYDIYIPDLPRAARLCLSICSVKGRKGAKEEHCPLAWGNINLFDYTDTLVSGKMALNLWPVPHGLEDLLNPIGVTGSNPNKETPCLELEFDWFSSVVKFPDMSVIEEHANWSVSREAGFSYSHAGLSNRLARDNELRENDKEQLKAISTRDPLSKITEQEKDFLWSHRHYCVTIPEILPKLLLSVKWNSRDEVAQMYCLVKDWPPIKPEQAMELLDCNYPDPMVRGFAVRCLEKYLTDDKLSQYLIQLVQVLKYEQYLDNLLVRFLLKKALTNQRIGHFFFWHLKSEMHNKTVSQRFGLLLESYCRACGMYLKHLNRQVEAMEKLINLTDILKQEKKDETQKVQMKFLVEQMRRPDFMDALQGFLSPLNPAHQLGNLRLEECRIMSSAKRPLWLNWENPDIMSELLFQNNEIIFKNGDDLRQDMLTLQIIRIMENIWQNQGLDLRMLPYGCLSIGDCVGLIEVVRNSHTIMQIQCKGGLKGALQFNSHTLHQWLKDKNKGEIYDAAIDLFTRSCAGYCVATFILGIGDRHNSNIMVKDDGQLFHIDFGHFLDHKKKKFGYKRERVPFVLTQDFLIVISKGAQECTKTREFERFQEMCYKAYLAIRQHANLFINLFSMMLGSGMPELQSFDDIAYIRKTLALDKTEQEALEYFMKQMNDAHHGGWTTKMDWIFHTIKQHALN
UniProt P42336, whole entry: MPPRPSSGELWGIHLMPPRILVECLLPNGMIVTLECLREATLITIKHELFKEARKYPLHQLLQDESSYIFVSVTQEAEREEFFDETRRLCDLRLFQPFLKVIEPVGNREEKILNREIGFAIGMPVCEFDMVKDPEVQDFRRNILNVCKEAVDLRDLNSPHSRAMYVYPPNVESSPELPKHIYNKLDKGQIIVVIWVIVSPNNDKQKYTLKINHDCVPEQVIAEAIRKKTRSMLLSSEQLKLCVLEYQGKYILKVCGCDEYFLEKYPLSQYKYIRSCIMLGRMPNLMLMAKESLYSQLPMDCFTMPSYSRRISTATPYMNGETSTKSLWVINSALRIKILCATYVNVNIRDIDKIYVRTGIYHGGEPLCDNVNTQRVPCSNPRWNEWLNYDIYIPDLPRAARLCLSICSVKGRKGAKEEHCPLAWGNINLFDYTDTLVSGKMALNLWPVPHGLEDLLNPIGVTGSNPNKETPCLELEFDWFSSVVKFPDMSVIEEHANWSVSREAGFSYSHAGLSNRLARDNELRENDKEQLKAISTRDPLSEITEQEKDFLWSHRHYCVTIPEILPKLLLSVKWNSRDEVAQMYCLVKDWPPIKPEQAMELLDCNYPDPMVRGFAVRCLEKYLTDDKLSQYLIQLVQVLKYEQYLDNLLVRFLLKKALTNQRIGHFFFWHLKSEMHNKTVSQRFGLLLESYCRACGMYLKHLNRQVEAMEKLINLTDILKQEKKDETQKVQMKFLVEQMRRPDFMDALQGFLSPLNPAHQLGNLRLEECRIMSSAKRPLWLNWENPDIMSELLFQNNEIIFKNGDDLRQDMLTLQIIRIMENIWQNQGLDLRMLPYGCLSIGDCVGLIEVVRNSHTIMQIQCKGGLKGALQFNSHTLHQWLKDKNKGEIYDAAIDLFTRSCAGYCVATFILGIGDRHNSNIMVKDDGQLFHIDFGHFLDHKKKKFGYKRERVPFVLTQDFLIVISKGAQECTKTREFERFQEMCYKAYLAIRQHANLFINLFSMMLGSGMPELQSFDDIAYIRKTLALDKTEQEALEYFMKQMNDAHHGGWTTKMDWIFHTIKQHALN
UniProt P42336, whole entry E545K: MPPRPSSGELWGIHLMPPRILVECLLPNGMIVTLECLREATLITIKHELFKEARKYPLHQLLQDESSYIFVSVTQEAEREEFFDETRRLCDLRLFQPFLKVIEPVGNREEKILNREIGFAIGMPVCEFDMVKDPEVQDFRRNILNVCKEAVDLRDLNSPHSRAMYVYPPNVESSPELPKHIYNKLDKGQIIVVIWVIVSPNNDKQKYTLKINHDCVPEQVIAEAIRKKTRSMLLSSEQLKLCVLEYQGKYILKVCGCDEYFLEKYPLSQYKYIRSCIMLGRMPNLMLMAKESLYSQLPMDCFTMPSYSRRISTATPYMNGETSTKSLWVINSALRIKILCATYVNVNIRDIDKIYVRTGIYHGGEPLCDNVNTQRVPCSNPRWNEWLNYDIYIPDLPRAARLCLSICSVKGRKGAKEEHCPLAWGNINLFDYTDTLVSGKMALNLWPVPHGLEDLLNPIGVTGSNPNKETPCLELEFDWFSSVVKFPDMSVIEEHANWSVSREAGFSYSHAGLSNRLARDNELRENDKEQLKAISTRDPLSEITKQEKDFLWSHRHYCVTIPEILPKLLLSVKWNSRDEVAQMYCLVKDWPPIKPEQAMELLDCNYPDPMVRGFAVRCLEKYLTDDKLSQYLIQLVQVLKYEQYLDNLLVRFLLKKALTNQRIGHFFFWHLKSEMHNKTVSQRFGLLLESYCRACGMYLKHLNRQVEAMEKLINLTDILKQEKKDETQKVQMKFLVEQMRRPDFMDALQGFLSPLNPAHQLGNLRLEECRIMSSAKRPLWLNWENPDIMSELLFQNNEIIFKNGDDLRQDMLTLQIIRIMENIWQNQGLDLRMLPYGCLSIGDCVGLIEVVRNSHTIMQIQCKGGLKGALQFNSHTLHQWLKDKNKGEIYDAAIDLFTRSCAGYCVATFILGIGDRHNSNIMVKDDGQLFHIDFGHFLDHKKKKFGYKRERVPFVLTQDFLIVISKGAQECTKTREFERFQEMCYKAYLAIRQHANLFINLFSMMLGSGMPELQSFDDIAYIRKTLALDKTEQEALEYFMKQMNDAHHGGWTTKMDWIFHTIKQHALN

The target of assay [1] is Phosphatidylinositol 4,5-bisphosphate 3-kinase catalytic subunit alpha isoform (Homo sapiens, UniProt P42336, H1047R).
Assay [2] concerns the target Phosphatidylinositol 4,5-bisphosphate 3-kinase catalytic subunit alpha isoform (Homo sapiens, UniProt P42336, E542K).
Assay [3] concerns the target Phosphatidylinositol 4,5-bisphosphate 3-kinase catalytic subunit alpha isoform (Homo sapiens, UniProt P42336).
For assay [4], the target named is Phosphatidylinositol 4,5-bisphosphate 3-kinase catalytic subunit alpha isoform (Homo sapiens, UniProt P42336, E545K).

Turning to `COCCNC(=O)c1nc2c(N3CCOCC3)nc(-c3cnc(N)nc3)cn2c1C`, the Ki (commonly the dissociation constant of the complex between target and ligand, obtained from inhibition or displacement) in assay [1] is 2.3 nM; in assay [2], 3.1 nM; in assay [3], 2.4 nM; in assay [4] it was 1.9 nM.
